## scFv variants of Ab-91 (heavy chain) against a SARS-CoV-2 spike peptide

Source: Engelhart et al. 2022 (doi:10.1038/s41597-022-01779-4), MIT Lincoln Laboratory and A-Alpha Bio; data file from the FLAb repository.

Target: peptide PDVDLGDISGINAS, taken from heptad repeat 2 (HR2) of SARS-CoV-2 spike.

The variants keep the light chain, the linker and the frameworks of Ab-91 (scFv order VL, a (GGGGS)3 linker, VH).
VL: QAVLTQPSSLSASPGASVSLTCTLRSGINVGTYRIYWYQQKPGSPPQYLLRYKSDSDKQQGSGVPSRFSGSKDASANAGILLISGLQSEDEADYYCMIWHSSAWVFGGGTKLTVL
VH: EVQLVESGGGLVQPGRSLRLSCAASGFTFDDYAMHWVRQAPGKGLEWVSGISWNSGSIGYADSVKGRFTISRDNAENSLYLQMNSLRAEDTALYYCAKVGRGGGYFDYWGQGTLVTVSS

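The parent was found by panning a naive human phage display library on the peptide. Variants in AAYL51 differ from the parent at up to three CDR positions; double and triple changes were sampled at random. The assay is AlphaSeq: two haploid yeast populations carry antibody and antigen on their surface. Binding brings cells together so that they mate, and sequencing counts the barcode pairs among the diploids. A regression on co-assayed BCL2-family reference pairs converts the normalised counts of each replicate to an apparent Kd. Each pool was mated in three replicate cultures.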

The parent's heavy chain CDRs are GFTFDDYAMH, GISWNSGSIGYADSVK, VGRGGGYFDY; each variant's own CDRs replace them letter for letter. The read-out is the apparent dissociation constant on a log10 scale (nM): the lower, the stronger. Replicates are averaged; those with no signal do not enter the mean. An entry "not detected" has no value in the source: the pair was not observed among the diploids in any replicate. This suggests poor binding but is not conclusive. Order: sorted from the lowest average up, undetected variants last.

CDR-H1 | CDR-H2 | CDR-H3 | log10 Kd (nM), mean | detected
GFTFDWYAMH | GISWNSGDIGYADSVK | VGRGGGYFDY | 0.03 | 3/3
GFTFAQAAMH | GISWNSGSIGYADSVK | VGRGGGYFDY | 1.14 | 3/3
GFTFCDYFMH | GISWNSGSIGYADSVK | WGRGGGYFDY | 1.28 | 3/3
GFIFDDYAMH | GISWNGGSIGYADSVK | VARGGGYFDY | 1.38 | 3/3
GFWFDDYAMH | GISWNSGSIGYADSVK | VGRVGGYFDY | 1.83 | 3/3
GFTFDDYAMD | GISWNSGSEGYADSVK | VGRGGGYFDY | 2.38 | 3/3
GFTFDDYAMH | GISWNSGSIEYADSVK | VGRGRHYFDY | 2.50 | 2/3
GFYFDDYAMH | GICWNSGCIGYADSVK | VGRGGGYFDY | 3.03 | 3/3
GFTFDDYAMH | GISWNSGSIGYADSVK | VGRSPVYFDY | 3.09 | 3/3
GFTFDDYAMH | GISWNSGSIGYADSGA | VPRGGGYFDY | 3.35 | 1/3
GFTFDDYAMH | GISWNSGSIGYADEVK | TGRGGGYFDY | 3.47 | 1/3
GFTFDDYAMH | GISWNSGSITEADSVK | VGRMGGYFDY | 4.00 | 1/3
GFTFDDYAMH | GISWNSGSIGYADSVK | DGRGGGYFDD | 4.14 | 3/3
GFLFDDYAMA | GISWNSGSIGYADSVK | VGRGGGYFSY | 4.42 | 1/3
GFTFDDYKMH | GIPWNSGSIGYADSVK | VGRAGGYFDY | 4.51 | 1/3
GFTFDVYAMH | GISWNSGSIGYADSVK | VGRSGGYFDY | 4.63 | 1/3
GFTFCDYAMH | GISWNSGKIGYADSVK | VGRGGGYFDV | 4.64 | 1/3
GFTFDDYAMS | GISIISGSIGYADSVK | VGRGGGYFDY | 4.68 | 1/3
GFTFDDYAMW | GISWNSGSIGYADSMK | VGRGGGYFTY | 4.72 | 1/3
GFTFDDYAMH | GISWNSGSIRYADSVK | VGRGGGKFDA | 4.81 | 3/3
GFTFDDYAMH | HISWNSCSIGYADSVK | VGAGGGYFDY | 4.81 | 3/3
GFTFDDYAMH | HISWNSGSINYPDSVK | VGRGGGYFDY | 4.84 | 3/3
GFTFDDYAMH | WISWNSFSIGYADSVK | VFRGGGYFDY | 5.04 | 3/3
GFTFDDYAMH | GISWNSGSIGYACSVK | YFRGGGYFDY | 5.08 | 2/3
GFTPDDYAMH | GISWNCGSIWYADSVK | VGRGGGYFDY | 5.13 | 1/3
GFLFDDPAMH | GISWNSGSIGRADSVK | VGRGGGYFDY | 5.22 | 2/3
GFTFDDYAMH | GIKWNSGSIGYADSVK | VGRGNCYFDY | 5.25 | 2/3
GFTFDDYAML | GISWNSGSITYADSVK | VGRGGGYFDY | 5.35 | 1/3
GFTFDDYAMH | DISWNSGSIGYADSVK | FKRGGGYFDY | 5.37 | 2/3
GFTMDDKAMH | GISWNSGSAGYADSVK | VGRGGGYFDY | 5.38 | 2/3

Continued, with the values leading:

log10 Kd (nM), mean | detected | CDR-H1 | CDR-H2 | CDR-H3
5.41 | 2/3 | GFTFDDYAMH | GISWNSFSIGYADGVK | VGRGNGYFDY
5.50 | 3/3 | GFTFDDYMMH | GISWHSGSIGYADSVK | VGRGGPYFDY
5.61 | 3/3 | GFRFDDYAMH | GWSWNVGSIGYADSVK | VGRGGGYFDY
6.25 | 2/3 | RFWFDDYAMH | GISWNSGGIGYADSVK | VGRGGGYFDY
not detected | 0/3 | GFTFDDYAMH | GISWNSGSIGYWDSVK | VGRLGGYFDY
not detected | 0/3 | YFTFDDYAMH | GISWNSGSTGYADSVK | VGRGGGKFDY
not detected | 0/3 | HFTFDDYCMH | GISWGSGSIGYADSVK | VGRGGGYFDY
not detected | 0/3 | GFTPDDYAMH | GITWNKGSIGYADSVK | VGRGGGYFDY
not detected | 0/3 | GFTFDDYAMH | GISWNSGSIGYAFSVK | VGRGYGYFDA
not detected | 0/3 | GFTFDDYAMH | GITINSGSIGYADSVK | VGRQGGYFDY
not detected | 0/3 | GFTFDDYAMH | GISWNSVSIGYADSVD | VGRGGGYFDY
not detected | 0/3 | GFTFDDYAIH | GISWNSGTIGYADSVK | VTRGGGYFDY
not detected | 0/3 | AFTFDDYAMH | GISWNAGSITYADSVK | VGRGGGYFDY
not detected | 0/3 | GHTFDDYAMH | GISWSSGSIGYADSVK | VGRGGGYFIY
not detected | 0/3 | GFTFDDYAMH | GISWNSGSILYADSVK | NGRGHGYFDY
not detected | 0/3 | GFGFDDYAMH | GIGWNSGSIGYADWVK | VGRGGGYFDY
not detected | 0/3 | GFTFVDYAMH | GNSWNSGSIGIADSVK | VGRGGGYFDY
not detected | 0/3 | GFTFDDYAMC | PISWNSGSIGYADSVK | VGRGDGYFDY
not detected | 0/3 | GFTFDDYAMH | GWSWNSGSIGYADSVK | QGRGGGYYDY
not detected | 0/3 | GFTFDDYGMH | NISWNSGSIGYADSVN | VGRGGGYFDY
not detected | 0/3 | GKTMDDYAMH | GISWNSGSIGYADSVC | VGRGGGYFDY
not detected | 0/3 | GFTFDDYAMH | NISWKSGSGGYADSVK | VGRGGGYFDY
not detected | 0/3 | GFTFFDEAMH | GISWNSGSIGYADSVK | VGRGGGYFDN
not detected | 0/3 | GFTSDDYAMH | GISWNSGSIGYADSVK | VGRGGGYNDY
not detected | 0/3 | GFTFDDYAMW | GISWNSGSIGYADDVK | VSRGGGYFDY
not detected | 0/3 | RFTYDDYAMH | GISTNSGSIGYADSVK | VGRGGGYFDY
not detected | 0/3 | GFTFLDYAMH | GGSWNSGSKGYADSVK | VGRGGGYFDY
not detected | 0/3 | GFTFDDYAMH | GCSWNSGSIGYADSVW | VGRGGGYFEY
not detected | 0/3 | GFTFDDYAMT | GISWNSGSIGYADSWK | VGRGDGYFDY
not detected | 0/3 | GFTFTDYVMH | GISWNSGSIGYADSVK | VGRGGGYFYY

The first 4 variants above that were never detected:

CDR-H1	CDR-H2	CDR-H3	log10 Kd (nM), mean	detected
GFTFDDYAMH	GISWNSGSIGYWDSVK	VGRLGGYFDY	not detected	0/3
YFTFDDYAMH	GISWNSGSTGYADSVK	VGRGGGKFDY	not detected	0/3
HFTFDDYCMH	GISWGSGSIGYADSVK	VGRGGGYFDY	not detected	0/3
GFTPDDYAMH	GITWNKGSIGYADSVK	VGRGGGYFDY	not detected	0/3

Background: pairings of library AAYL51 with three empty control strains gave a value in 21% of cases (median 4.54, 5th percentile 3.26). Values in that range, when seen in few replicates, are hard to tell from nonspecific mating. Parent in this assay: reference entry 1.86, copy in this library 0.88.